The results in this text go back to patent publication US8642759B2, “Benzene sulfonamide thiazole and oxazole compounds” (GlaxoSmithKline LLC, priority 2008, dated 2014).

The chains behind the UniProt entries cited, without tags or fusion partners. Residues count along the entry.
UniProt P15056, 2-766 V600E limits assumed: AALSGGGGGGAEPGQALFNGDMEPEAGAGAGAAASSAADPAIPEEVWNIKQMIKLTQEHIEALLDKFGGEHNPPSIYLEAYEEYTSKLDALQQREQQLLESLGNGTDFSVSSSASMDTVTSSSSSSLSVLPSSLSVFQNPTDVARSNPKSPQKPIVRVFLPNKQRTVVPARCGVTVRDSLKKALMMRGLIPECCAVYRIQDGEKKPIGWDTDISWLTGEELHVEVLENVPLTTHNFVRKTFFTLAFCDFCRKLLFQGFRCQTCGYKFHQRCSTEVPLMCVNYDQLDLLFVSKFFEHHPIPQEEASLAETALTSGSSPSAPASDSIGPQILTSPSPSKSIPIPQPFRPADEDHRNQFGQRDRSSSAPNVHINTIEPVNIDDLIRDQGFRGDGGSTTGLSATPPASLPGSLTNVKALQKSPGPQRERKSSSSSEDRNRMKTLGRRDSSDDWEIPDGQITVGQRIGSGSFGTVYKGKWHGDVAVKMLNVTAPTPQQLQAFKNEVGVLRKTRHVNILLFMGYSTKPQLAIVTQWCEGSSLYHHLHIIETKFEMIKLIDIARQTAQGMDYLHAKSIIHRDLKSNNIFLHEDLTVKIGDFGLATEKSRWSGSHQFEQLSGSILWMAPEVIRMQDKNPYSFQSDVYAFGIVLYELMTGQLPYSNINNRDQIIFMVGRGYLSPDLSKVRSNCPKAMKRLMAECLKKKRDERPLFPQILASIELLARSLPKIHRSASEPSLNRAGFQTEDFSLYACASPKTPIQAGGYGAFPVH

This assay deals with His6-tagged BRAFV600E full-length (amino acids 2-766) (Homo sapiens, UniProt P15056, V600E). The conditions noted are these: Table 1a; highest pIC50 for the one or more runs.

`CC(C)c1nc(-c2ccc(F)c(NS(=O)(=O)c3c(F)cccc3F)c2)c(-c2ccnc(NCC(F)(F)F)n2)s1`: the “B-Raf Activity” value is recorded as “++ (indicates at least one pIC50 measurement greater than 6 against B-Raf but no measurement greater than pIC50 of 7)”.

With `COCCCNc1nccc(-c2sc(N3CCOCC3)nc2-c2cccc(NS(=O)(=O)c3cc(F)ccc3F)c2F)n1`, the “B-Raf Activity” value is reported as “+++ (indicates at least one pIC50 measurement of greater than 7 against B-Raf)”.
